This assay addresses D3R (Homo sapiens, UniProt P35462). Description: β-arrestin recruitment assay. As to conditions: curve shift, Gaddum/Schild model, Schild slope of unity, equation 5. (Activated receptors often draw arrestin, which recruitment assays turn into a signal.)

The chains behind the UniProt entries cited, without tags or fusion partners. Where a name states a change or a piece, a line headed by the entry shows the natural chain unless it says otherwise.
UniProt P35462, whole entry: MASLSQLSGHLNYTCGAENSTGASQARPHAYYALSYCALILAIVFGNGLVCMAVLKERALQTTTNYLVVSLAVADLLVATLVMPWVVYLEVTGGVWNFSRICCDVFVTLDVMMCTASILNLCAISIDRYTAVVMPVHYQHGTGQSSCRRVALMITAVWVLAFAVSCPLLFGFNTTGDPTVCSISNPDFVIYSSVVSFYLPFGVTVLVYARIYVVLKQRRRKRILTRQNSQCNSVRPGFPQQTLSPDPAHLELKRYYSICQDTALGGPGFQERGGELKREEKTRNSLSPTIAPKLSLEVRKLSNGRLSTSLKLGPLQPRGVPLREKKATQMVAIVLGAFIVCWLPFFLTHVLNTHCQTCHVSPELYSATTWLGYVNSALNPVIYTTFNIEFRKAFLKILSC

Consider 1 compound from article PMC5325712 (Journal of medicinal chemistry, 2017).

In general, pA2 refers to the negative logarithm of the molar antagonist concentration that doubles the agonist concentration needed for the same response.

As to `CCN1CCCC1CNC(=O)c1cc(S(N)(=O)=O)ccc1OC` (stereo not shown) [sulpiride], the “pA2 at D3R” value came out at 7.40 ± 0.10.
